Only some compounds are listed: those with a hit (about 4.2% of all), similar ones and a draw of the others.
UUG fidelity = modulators of yeast start codon fidelity, primary screen, whole organism, S. cerevisiae, single point, plate reader; S. cerevisiae UUG-firefly luciferase reporter, luminescence/redox ratio; activity score, % at 18.7 µM; actives 0.13% (n = 350,000); AID 602363, 2012;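 active = replicate mean at a twofold rise or more, about +100% in these data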;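 also: firefly luciferase made from a UUG start codon reports start codon fidelity; reporter light over untreated wells divided by growth signal over untreated wells; some hits fall short of that in this replicate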
HDAC3 inh = inhibitors of human histone deacetylase 3; O15379; recombinant HDAC3, fluorogenic peptide/trypsin coupled, fluorescence; inhibition, % at 8.3 µM; hit rate 0.15% among 320,000; in the data active = inhibition above about 26%, passing the limit was not always enough
MC4R barr agon = activates human MC4R beta-arrestin recruitment; activation, % at 8.9 µM; P32245; hit rate 0.98% among 360,000; AID 540308; U2OS MC4R beta-arrestin complementation, luminescence; percent of melanotan II response, DMSO zero;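 active = activation above a per-plate cutoff, the mean activation of sample wells on that plate plus 3 SD, cut at about 8% in these data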
ALR H2O2 inh = human ALR oxidase inhibition via reduced H2O2; P55789; purified ALR, DTT oxidation, H2O2 HRP-luminol luminescence; inhibition, % (concentration not given with the values); 290,000 compounds, 3.8% hits;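 active = mean and each replicate at 75% or more; inconclusive = only one of the two met; inactive = neither met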;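 also: stock transfer was 7.5 nL into about 7.5 µL; 0% = neutral wells and 100% = wells with inactivated enzyme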
MC4R antagonist = antagonists of human melanocortin 4 receptor (MC4R); MC4R-expressing cells, MTII-stimulated cAMP, LANCE TR-FRET; hit rate 0.48% among 360,000; inhibition, % at 6.5 µM; AID 540295; P32245;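 active = inhibition above its plate's cutoff, the mean of tested wells on that plate plus 3 SD, cut at about 29% in these data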;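 note: 0% = Melanotan II alone and 100% = Melanotan II plus saturating MCL0020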
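Material – human MC4R-expressing U2OS cells · Repeats – no replicates · Detection – TR-FRET with Eu-cAMP and labeled anti-cAMP, 671 nm · Times – compound 30 min, challenge 1 h, detection 1 h · Compound – single nominal compound dose of 6.5 µM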
NALP1 inh = inhibitors of NALP1 inflammasome in yeast. S. cerevisiae NALP1/ASC/caspase-1 growth, X-gal OD620, 72 h. inhibition, % at 10 µM. hit rate 0.61% among 280,000. AID 2071; in the data active = inhibition mostly above about 24%, no sharp cut-off; inactive = mostly below about 32%
Starred values were filed as active, the others as inactive; . = no result given.

| No. | compound | UUG fidelity | HDAC3 inh | MC4R barr agon | ALR H2O2 inh | MC4R antagonist | NALP1 inh |
| --- | --- | --- | --- | --- | --- | --- | --- |
| 1 | CC(=O)Nc1ccc(SC[C@H](C)CN2CC[C@H](O)CCC2=O)cc1 | -15 | 0 | -2 | 98* | 4 | . |
| 2 | O=c1c(-c2n[nH]c(=S)n2-c2ccccc2)cccn1Cc1cccc(Cl)c1 | . | 1 | -2 | 93* | -4 | -3 |
| 3 | COCC1CCN(C(=O)c2cc(COc3ccc(C)c(C)c3)on2)C1 (stereo unspecified) | 13 | 4 | -4 | -7 | 5 | 3 |
| 4 | COCC1CCN(C(=O)c2cc(COc3ccc4c(c3)CCCC4)on2)C1 (stereo unspecified) | -4 | -6 | 1 | -4 | -6 | 27* |
| 5 | O=C(C[C@@H]1CC[C@@H](NC(=O)Nc2ccc(F)cc2)[C@@H](CO)O1)NCc1cccc(F)c1 | -6 | . | . | . | . | . |
| 6 | O=C(NC1CCC1)[C@@H]1N[C@@H]2c3ccc(-c4cccc(F)c4)c(=O)n3C[C@@H]2[C@H]1CO | 6 | . | . | . | . | . |
| 7 | O=C(CSc1ccccc1)Nc1ccc(N2CCN(c3ccccc3)CC2)c(F)c1 | -20 | -6 | 2 | 100* | 5 | 9 |
| 8 | Nc1ccc(N2CCN(c3ccccc3)CC2)c(F)c1 | -16 | 3 | -2 | 79* | 2 | 5 |

Quoted at random: 4 entries already listed
| No. | compound | UUG fidelity | HDAC3 inh | MC4R barr agon | ALR H2O2 inh | MC4R antagonist | NALP1 inh |
| --- | --- | --- | --- | --- | --- | --- | --- |
| 5 | O=C(C[C@@H]1CC[C@@H](NC(=O)Nc2ccc(F)cc2)[C@@H](CO)O1)NCc1cccc(F)c1 | -6 | . | . | . | . | . |
| 7 | O=C(CSc1ccccc1)Nc1ccc(N2CCN(c3ccccc3)CC2)c(F)c1 | -20 | -6 | 2 | 100* | 5 | 9 |
| 8 | Nc1ccc(N2CCN(c3ccccc3)CC2)c(F)c1 | -16 | 3 | -2 | 79* | 2 | 5 |
| 6 | O=C(NC1CCC1)[C@@H]1N[C@@H]2c3ccc(-c4cccc(F)c4)c(=O)n3C[C@@H]2[C@H]1CO | 6 | . | . | . | . | . |

Continued.
| No. | compound | UUG fidelity | HDAC3 inh | MC4R barr agon | ALR H2O2 inh | MC4R antagonist | NALP1 inh |
| --- | --- | --- | --- | --- | --- | --- | --- |
| 9 | COCC(=O)Nc1ccc(N2CCN(c3ccccc3)CC2)c(F)c1 | -13 | 2 | -3 | -6 | 5 | -13 |
| 10 | C[C@@H]1CN([C@H](C)CO)C(=O)c2cc(NS(=O)(=O)c3cn(C)cn3)ccc2O[C@H]1CN(C)CC1CCCCC1 | -7 | . | . | . | . | . |
| 11 | COc1ccc(NC2CCCCC2NS(=O)(=O)c2ccc(C)cc2)cc1 (stereo unspecified) | 1 | -2 | 1 | 87* | 1 | 21 |
| 12 | CCOc1ccc(S(=O)(=O)NC2CCCCCC2)cc1 | . | -1 | 2 | . | 3 | -4 |
| 13 | COc1ccccc1NC1CCCCC1NS(=O)(=O)c1ccc(C)cc1 (stereo unspecified) | 0 | . | 1 | . | 9 | 7 |
| 14 | CCOc1ccc(NC2CCCCC2NS(=O)(=O)c2ccccc2)cc1 (stereo unspecified) | . | -7 | -2 | 92* | -1 | 4 |
| 15 | CCOC(=O)/C(C#N)=C/c1cc2ccc(C)cc2nc1Cl | . | -4 | -3 | 96* | -24 | 5 |
| 16 | Cc1cc2cc(C=C(C#N)C#N)c(Cl)nc2cc1C | -13 | 1 | -3 | 98* | 11 | 60* |
| 17 | CCOC(=O)/C(C#N)=C/c1cc2cc(C)c(C)cc2nc1Cl | -20 | -10 | -2 | 66 | 5 | . |
| 18 | CNC(=O)C[C@@H]1CC[C@H]2[C@H](COc3ccc(NC(=O)Nc4cc(C)cc(C)c4)cc3C(=O)N2C)O1 | 0 | . | . | . | . | . |
| 19 | Cc1ccc(S(=O)(=O)N[C@H]2CC[C@@H](CC(=O)NCCN3CCCCC3)O[C@H]2CO)cc1 | -10 | . | . | . | . | . |
| 20 | Cc1cc(C(=O)NC2CCCC2)c2ccccc2n1 | -19 | -9 | 0 | -13 | 3 | 14 |
| 21 | Cc1nc2cccc(C(=O)NC3CCCCC3)c2o1 | 0 | -6 | -1 | 14 | 11 | 32* |
| 22 | CCCN(C)C[C@H]1OCCCC[C@H](C)Oc2ccc(NC(=O)Cc3ccccc3)cc2C(=O)N([C@@H](C)CO)C[C@H]1C | 10 | . | . | . | . | . |
| 23 | CN(CCO)CC(O)CN(c1ccccc1)c1ccccc1 (stereo unspecified) | . | -4 | -1 | 99* | 3 | 18 |
| 24 | CNCC(O)CN(c1ccccc1)c1ccccc1 (stereo unspecified) | . | -1 | 0 | 99* | 7 | -3 |
| 25 | NC(N)=NCC(O)CN(c1ccccc1)c1ccccc1 (stereo unspecified) | -9 | 6 | 2 | 99* | 4 | 30 |
| 26 | CN(Cc1ccccc1)CC(O)CN(C)Cc1ccccc1 | -16 | . | 0 | . | 0 | . |
| 27 | CC(C)[C@@H]1CC[C@@H](C)C[C@H]1OC(=O)C[n+]1cc(-c2ccc(Cl)cc2)n2c1CCCCC2 | . | -7 | 59* | -13 | 4 | 7 |
| 28 | COc1ccc2c(c1O)C(=O)c1ccccc1C2=O | . | -4 | . | -20 | . | -7 |
| 29 | Nc1c(O)ccc2c1C(=O)c1ccccc1C2=O | . | 1 | . | 99* | . | 32 |
| 30 | CCC(=O)Nc1cccc(-c2cnc3ccccc3n2)c1 | -4 | 2 | 0 | 88* | 8 | -2 |
| 31 | O=C(Nc1cccc(-c2cnc3ccccc3n2)c1)c1ccccc1 | -16 | 0 | 3 | -2 | 5 | 5 |
| 32 | O=C(Nc1cccc(-c2cnc3ccccc3n2)c1)c1cccc(NC(=O)c2ccco2)c1 | 1 | 1 | 35* | 2 | -1 | -4 |

Assay outcomes (PubChem BioAssay)
